# In patent US5679674A (priority 1992, dated 1997):
# Protein sequences, listed by entry. Tags and fused reporters are not part of them. Lines headed by an entry give the natural chain unless they say otherwise; changes in a name come on top. Residues count along the entry.
# UniProt P41144: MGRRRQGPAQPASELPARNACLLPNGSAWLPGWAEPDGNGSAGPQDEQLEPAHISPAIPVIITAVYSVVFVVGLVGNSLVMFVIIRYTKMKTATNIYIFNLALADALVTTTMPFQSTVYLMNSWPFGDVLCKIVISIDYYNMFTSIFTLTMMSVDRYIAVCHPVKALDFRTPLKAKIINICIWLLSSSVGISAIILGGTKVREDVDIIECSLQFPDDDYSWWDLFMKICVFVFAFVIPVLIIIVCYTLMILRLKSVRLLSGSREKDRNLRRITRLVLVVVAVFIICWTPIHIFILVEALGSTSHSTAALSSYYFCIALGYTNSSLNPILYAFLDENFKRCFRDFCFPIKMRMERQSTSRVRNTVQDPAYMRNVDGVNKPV
# UniProt A0ACM8Q262, 1-400: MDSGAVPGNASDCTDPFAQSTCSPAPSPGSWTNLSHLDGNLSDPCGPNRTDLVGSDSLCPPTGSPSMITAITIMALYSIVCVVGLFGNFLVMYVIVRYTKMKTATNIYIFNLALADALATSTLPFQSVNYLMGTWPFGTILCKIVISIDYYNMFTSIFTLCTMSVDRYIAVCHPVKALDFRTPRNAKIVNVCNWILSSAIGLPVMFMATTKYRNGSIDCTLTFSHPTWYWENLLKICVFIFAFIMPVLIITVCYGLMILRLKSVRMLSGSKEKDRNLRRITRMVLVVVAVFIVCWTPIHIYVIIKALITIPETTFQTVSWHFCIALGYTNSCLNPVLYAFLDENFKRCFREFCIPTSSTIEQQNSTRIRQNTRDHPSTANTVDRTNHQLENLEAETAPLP
# Legend:
# [1] = molecular target: k-receptor (Cavia porcellus, UniProt P41144); test: Receptor-affinity test: binding to k-receptor; conditions: read-out: Binding to the receptors (IC50, nM) k; 0.6 nM tritium-labelled ethylketocyclazocine; guinea pig brain membrane; 25° C., 45 minutes
# [2] = molecular target: μ-receptor (Cavia porcellus, UniProt A0ACM8Q262); test: Receptor-affinity test: binding to μ-receptor; conditions: read-out: Binding to the receptors (IC50, nM) μ; 1 nM tritium-labelled DAGO; guinea pig brain membrane
# [3] = system: p-Phenylquinone-induced agony (writhing response) in mice; test: p-Phenylquinone-induced agony test in mice (hypodermic administration); type: in vivo, Male ddy mice; conditions: p-phenylquinone 15 minutes after compound, ED50 by probit method
structure (smiles),measurement,setting,value
CN(C(=O)Cc1ccc(Cl)c(Cl)c1)[C@@H]1CCCC[C@H]1N1CCCC1 (relative stereo),IC50,[1],9.92 nM
same,IC50,[2],636 nM
same,"Analgesic effect (ED50, μg/kg sc) Phenylquinone-induced agony test",[3],490 µg/kg
